These are literature values, as cited in article PMC4752257.

Sequences of proteins named here, by UniProt entry; tags and fusion partners are left off. Residues count along the entry.
UniProt P31785, 23-262: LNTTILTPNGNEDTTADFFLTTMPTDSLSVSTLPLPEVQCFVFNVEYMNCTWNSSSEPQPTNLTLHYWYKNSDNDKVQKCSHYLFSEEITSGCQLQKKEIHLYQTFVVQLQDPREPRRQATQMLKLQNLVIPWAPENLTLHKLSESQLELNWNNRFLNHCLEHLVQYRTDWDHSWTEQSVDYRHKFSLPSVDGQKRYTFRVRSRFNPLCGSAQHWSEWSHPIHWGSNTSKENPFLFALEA
UniProt P05112, 25-153: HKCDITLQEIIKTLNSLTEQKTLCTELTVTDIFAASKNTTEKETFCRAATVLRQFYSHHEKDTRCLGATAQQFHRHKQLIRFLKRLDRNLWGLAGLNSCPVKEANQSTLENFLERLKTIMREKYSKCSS

The term Kd denotes the constant that tells how readily two partners part at equilibrium.

In the series the target is common gamma chain (Homo sapiens) (UniProt P31785).

As for IL-4 (from UniProt P05112), the Kd is 150 µM.
